Assay results published in PubChem BioAssay AID526 (National Center for Advancing Translational Sciences (NCATS), 2006).
“And” between values parts separate entries of the source, which are not always exact repeats. Equal entries are not always repeated. This is one part of the list. The source made the active and inactive calls. Calls come from the whole dose curve; as a rule, active = well fitted activation curve with a large enough effect (not every such curve was filed as active); inconclusive = small, poorly fitted or top-dose-only effect, or another doubt; inactive = no such curve, though single readings can be large or run the other way.

experiment: Ubiquitin-GFP Assay; settings: Ubiquitin-GFP reporter cells, proteasome inhibition, GFP fluorescence, untreated = 0%, 10 µM MG-132 = 100%; at 45.9 µM (top of the series) unless noted
Excerpt: NIH Chemical Genomics Center [NCGC]
NIH Molecular Libraries Screening Centers Network [MLSCN]
The ubiquitin-proteasome pathway is present within all eukaryotic cells and plays roles in normal cellular functions and disease-related dysfunction. Proteins are tagged with a poly-ubiquitin chain that targets them for the proteasome, a multimeric protease, that degrades the protein into peptides and free ubiquitin. The proteasome has a key role in regulating cell cycle and growth and is known to control the levels of cyclins and CDK inhibitors as well as tumor suppressor proteins. Additionally, the activation of NF- B is controlled by ubiquitin-labeling and degradation of the inhibitory protein I B . […] With this in mind, proteasome inhibitors such as MG-132 and PS-341 have been used to inhibit tumor cell growth.
A cellular assay for ubiquitin-proteasome function was used to find chemical probes of this pathway. The assay used an ubiquitin-GFP construct expressed in U2OS cells (BioImage). Under basal conditions little GFP can be detected as it is degraded by the proteasome. However, treatment of the cells with a proteasome inhibitor such as MG-132 results in a rise in GFP levels that can be detected in as little as four hours. We used the Acumen-Explorer laser plate cytometer having a 488 nm laser as an excitation light source to detect the GFP. Compounds were screened in 1536-well plates using qHTS with a concentration-titration series range that varied from 46 uM to 2.9 nM.
NCGC Assay Protocol Summary:
Cells (U20S ps 2042) expressing ubiquitin (G76V-GFP) were maintained in DMEM with Glutamax-1 and high glucose, 10% FBS, 1% (v/v) penicillin-streptomycin, 0.5 mg/mL Geneticin (G418). The cells were seeded in 1536-well plates using a solenoid-based dispenser at 700 cells/5ul in DMEM medium with Glutamax-1 and high glucose containing 0.5% FBS, w/o phenol red, 25 mM HEPES. The plates were incubated at 37 °C/5% CO2 overnight. Then 23 nl of MG-132 in DMSO was added to the control wells at a final concentration of 10 uM. Next, 23 nL of library compounds in DMSO were added to the sample wells. The plates were incubated for 4 hrs at 37 °C/5% CO2. Following this incubation the plates were read on the Acumen using a cell object definition of 15 to 100 um in width and depth and a window of Total Intensity of between 77,200 and 2,720,000 FLU to enumerate GFP-expressing cells.
The %Activity was determined from the basal and MG-132 treated control wells. %Activity was determined by normalizing to the difference in signal between basal cells (0% Activity) and cells incubated with 10 uM of the proteasome inhibitor MG-132 (100% Activity). Concentration-response curves were fitted to the signals arising from the GFP fluorescence.
Assay Protocol Summary Table
Sequence Parameter Value Description
2. Time O/N 37C incubation
4. Compound 23 nL Libraries (46 uM to 2.9 nM)
5. Time 4 hr 37C incubation
6. Detector Acumen Total Intensity, GFP fluorescence (488 ex/515 em)
Keywords: NIH Roadmap, MLSCN, MLI, MLSMR, BioImage, proteasome, ubiquitin-GFP, qHTS, NCGC

SMILES | activation (GFP accumulation)
COC(=O)c1cc2c(s1)N=C(c1ccccc1)N(C)P2(=O)N1CCOCC1 (centres undefined) | inactive: 1.67%
O=P1(Nc2nc3ccc(Cl)cc3s2)COc2ccccc2O1 (centres undefined) | inactive: 0%
C[C@@H](O)COc1ccc([As](=O)(O)O)cc1N | inactive: -5.28% [at 9.17 µM]
CN1CCC[C@H](OC(=O)C(c2ccccc2)c2ccccc2)C1 | inactive: -5.71% [at 9.17 µM]
c1nnnn1CCn1cnnn1 | inactive: 10.7%
O=P(Nc1nccs1)(c1ccccc1)c1ccccc1 | inactive: -2.63%
O=C(OC1CN2CCC1CC2)c1cccc(Cl)c1 (centres undefined) | inactive: -6.9%
[N-]=[N+]=Nc1ccc([As](=O)(O)O)cc1 | inactive: -4.65% [at 9.17 µM]
CN(C(=O)Cc1ccccc1)[C@@H]1CC[C@@]2(CCCO2)C[C@H]1N1CCCC1 | inactive: 0.389%
O=C(CO)Nc1ccc([As](=O)(O)O)cc1 | inactive: 1.03% [at 9.17 µM]
CCc1nc2c(n1)c1c(non1O)c1c2no[n+]1[O-] | inactive: -9.34%
NCC[C@@H](N)CSP(=O)(O)O | inactive: -8.5% [at 9.17 µM]
Cc1c2non([O-])c-2c(C)[n+](=O)[n+]1[O-] | inactive: -3.12%
O=[N+]([O-])c1ccc(C[As](=O)(O)O)cc1 | inactive: -9.73% [at 9.17 µM]
C(Cc1nn[nH]n1)c1nn[nH]n1 | inactive: 2.7% [at 9.17 µM]
[N-]=[N+]=NCC(O)CN=[N+]=[N-] (centres undefined) | inactive: 8.7% [at 9.17 µM]
CN(C(=O)Cc1ccc(Cl)c(Cl)c1)[C@H]1CCCC[C@@H]1N1CCCC1 | inactive: 12.6% and inactive: -5.19% and inactive: -2.5%
O=[As]c1ccc(S(=O)(=O)NCCO)cc1 (centres undefined) | inactive: 6.53% [at 9.17 µM]
[N-]=[N+]=NCC(N)=O | inactive: -12.8% [at 9.17 µM]
NC(=O)Nc1cc([As](=O)(O)O)cc(I)c1O | inactive: 4.23% [at 9.17 µM]

SMILES | activation (GFP accumulation)
O=C(OC1CN2CCC1CC2)C12CC3CC(CC(C3)C1)C2 (centres undefined) | inactive: -9.43%
O=C(COc1ccccc1)OC1CN2CCC1CC2 (centres undefined) | inactive: 0%
O=C(O)[C@@H](O)c1ccc([As](=O)(O)O)cc1 | inactive: -2.15% [at 9.17 µM]
COP1(=S)c2c(C)nn(CCC#N)c2N=C(c2ccc(F)cc2)N1C (centres undefined) | inactive: 1.15%
O=P1(Nc2ccc(Br)cn2)COc2ccccc2OC1 | inactive: 0.534%
O=P1(Nc2ncccn2)COc2ccccc2OC1 | inactive: 3.45%
Cc1nn(-c2ccccc2)c2c1P(=O)(N1CCOCC1)N(C)C(c1ccccc1)=N2 (centres undefined) | inactive: -2.51%
CN(C(=O)Cc1ccc(Cl)c(Cl)c1)[C@@H]1CCCC[C@H]1N1CCCC1 | inactive: 3.18% [middle of 4 runs]
Clc1n[nH]nc1-c1nn[nH][15n]1 | inactive: 2.6%
O=P1(Nc2ccccn2)COc2ccccc2OC1 | inactive: -4.97%
CN(CCCl)Cc1cc(Cl)c(NC2=NCCN2)c(Cl)c1 | inactive: 8.2%
CN(C(=O)Cc1ccc(Cl)c(Cl)c1)[C@@H]1CC[C@@]2(CCCO2)C[C@H]1N1CCCC1 | inactive: -1.25%
NS(=O)(=O)Cc1ccc([As](=O)(O)O)cc1 | inactive: -6.82% [at 9.17 µM]
O=C(CC(=O)c1ccccc1)O[C@H]1CN2CCC1CC2 | inactive: 1.97% [at 9.17 µM]
CCOP1(=S)c2c(C)nn(CCC#N)c2N=C(c2ccc(F)cc2)N1C (centres undefined) | inactive: -1.69%
NC(=O)Nc1ccc([As](=O)(O)O)cc1 | inactive: -8.51% [at 20.5 µM]
O=[As](O)(O)c1ccc([As](=O)(O)O)cc1 | inactive: 6.82% [at 9.17 µM]
CCOP1(=S)c2c(C)nn(CCC#N)c2N=C(c2ccccc2F)N1C (centres undefined) | inactive: -0.962%
O=P(Nc1nccs1)(c1ccccc1)c1nc2ccccc2s1 (centres undefined) | inactive: -4.17%
